Literature values as cited in patent US6486196B2, “Anticancer compounds: process for their preparation and pharmaceutical compositions containing them” (Dr. Reddy's Research Foundation, priority 2000, dated 2002).

Test system: H9 cell
Conditions: cited from earlier work

Substance: dehydroandrographolide succinic acid monoester [DASM]
- concentrations nontoxic to the H9 cell: 50 to 200 µg/mL
